This is an account of results in PMC3190642 (Biochemistry, 2011).

In data set [1] the target is E1o (Escherichia coli, UniProt P0AFG3). Briefly: biochemical.
Data set [2] has as its target E1o (Escherichia coli, UniProt P0AFG3, H298D). The data set can be described thus: biochemical.
Substrate in data set [3]: CCCC(=O)C(=O)O
Briefly: purified protein. To be noted: DCPIP as electron acceptor.

Substrate in data set [4]: O=C(O)CCC(=O)C(=O)O
The data set can be described thus: purified protein. The following applies: DCPIP as electron acceptor.

What is called Kd is the concentration at which binding is half-saturated. Low readings indicate a tighter complex, high ones a looser complex. Consider `CC(=O)[PH](=O)O` [AcP^−], for which the affinity in data set [1], expressed as Kd, was 320 µM.
For `CCC(=O)[PH](=O)O` [PP^−], the Kd in data set [2] came out at 9.6 µM; in data set [1] it was 39 µM.
Take `COP(=O)(O)C(=O)CCC(=O)O` [SPME^−]: in data set [1], the Kd was determined as 10 µM.

B1: E1o (Escherichia coli K-12; H298V) (protein)
chain: MQNSALKAWLDSSYLSGANQSWIEQLYEDFLTDPDSVDANWRSTFQQLPGTGVKPDQFHSQTREYFRRLAKDASRYSSTISDPDTNVKQVKVLQLINAYRFRGHQHANLDPLGLWQQDKVADLDPSFHDLTEADFQETFNVGSFASGKETMKLGELLEALKQTYCGPIGAEYMHITSTEEKRWIQQRIESGRATFNSEEKKRFLSELTAAEGLERYLGAKFPGAKRFSLEGGDALIPMLKEMIRHAGNSGTREVVLGMAHRGRLNVLVNVLGKKPQDLFDEFAGKHKEHLGTGDVKYVMGFSSDFQTDGGLVHLALAFNPSHLEIVSPVVIGSVRARLDRLDEPSSNKVLPITIHGDAAVTGQGVVQETLNMSKARGYEVGGTVRIVINNQVGFTTSNPLDARSTPYCTDIGKMVQAPIFHVNADDPEAVAFVTRLALDFRNTFKRDVFIDLVCYRRHGHNEADEPSATQPLMYQKIKKHPTPRKIYADKLEQEKVATLEDATEMVNLYRDALDAGDCVVAEWRPMNMHSFTWSPYLNHEWDEEYPNKVEMKRLQELAKRISTVPEAVEMQSRVAKIYGDRQAMAAGEKLFDWGGAENLAYATLVDEGIPVRLSGEDSGRGTFFHRHAVIHNQSNGSTYTPLQHIHNGQGAFRVWDSVLSEEAVLAFEYGYATAEPRTLTIWEAQFGDFANGAQVVIDQFISSGEQKWGRMCGLVMLLPHGYEGQGPEHSSARLERYLQLCAEQNMQVCVPSTPAQVYHMLRRQALRGMRRPLVVMSPKSLLRHPLAVSSLEELANGTFLPAIGEIDELDPKGVKRVVMCSGKVYYDLLEQRRKNNQHDVAIVRIEQLYPFPHKAMQEVLQQFAHVKDFVWCQEEPLNQGAWYCSQHHFREVIPFGASLRYAGRPASASPAVGYMSVHQKQQQDLVNDALNVE
By Km is commonly meant the substrate concentration at which the rate is half of its maximum. As usually defined, the kcat is the maximal rate divided by the concentration of active sites. For orientation: kcat/Km means the turnover number divided by the Michaelis constant. As to B1, in data set [3], the Km came out at 8.96 ± 0.005 mM, the kcat came to 0.556 s⁻¹ and the kcat/Km is 62 M⁻¹ s⁻¹. Moreover, in data set [4], the Km is 165 ± 6 × 10^-3 mM, the kcat worked out at 0.099 s⁻¹ and the kcat/Km was 600 M⁻¹ s⁻¹.
